Results as given in PubChem BioAssay AID2305 (GlaxoSmithKline (GSK), 2010).
pIC50: −log10 of the molar value.

Tested on: P. falciparum 3D7 growth, pLDH absorbance
Test: blood-stage malaria parasite growth potency – strain 3D7, dose response (AID 2305)

| Structure (SMILES) | pIC50 |
| --- | --- |
| CCN1CCCC1COC(=O)C(O)(c1ccc2c(c1)OCO2)c1ccc2c(c1)OCO2 (configuration not stated) | 6.10 |
| CCN1CCCC(OC(=O)C(O)(c2ccc3c(c2)OCO3)c2ccc3c(c2)OCO3)C1 (configuration not stated) | 6.11 |
